## AlphaSeq binding of Ab-14 heavy chain variants to a spike HR2 peptide

Values reported by Engelhart et al. 2022, doi:10.1038/s41597-022-01779-4 (FLAb copy).

Antigen: PDVDLGDISGINAS, a 14-residue peptide of the SARS-CoV-2 spike HR2 region.

Each scFv is VH, the linker GGGGSGGGGSGGGGS, VL, as in the parent Ab-14, and differs from it in the CDRs of the heavy chain only.
VH: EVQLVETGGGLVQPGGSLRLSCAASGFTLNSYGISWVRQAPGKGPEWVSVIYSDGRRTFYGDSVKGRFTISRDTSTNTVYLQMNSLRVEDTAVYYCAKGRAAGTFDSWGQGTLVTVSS
VL: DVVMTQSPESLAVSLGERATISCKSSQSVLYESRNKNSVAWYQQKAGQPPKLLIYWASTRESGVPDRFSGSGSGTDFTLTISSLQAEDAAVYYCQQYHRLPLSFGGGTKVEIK

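In library AAYL49, one, two or three CDR residues were substituted; doubles and triples were drawn at random. The assay is AlphaSeq: two haploid yeast populations carry antibody and antigen on their surface. Pairs that bind mate more often; barcode pairs of the diploids are counted by sequencing. Each replicate has its own calibration line, from reference interactions of the BCL2 family. Mating was done three times.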

Variants are written as CDR1, CDR2 and CDR3 of the heavy chain (limits as in the source). Parent: GFTLNSYGIS, VIYSDGRRTFYGDSVK, GRAAGTFDS.
Numbers give log10(Kd / nM), so 0 is 1 nM and 3 is 1 µM. Smaller is tighter.
The mean shown is taken over the replicates in which the pair was detected.
"n.d." marks a missing value. The strain was present, yet no cells mated with the target were sequenced in that replicate, which points to weak or no binding.
For reference, the parent read 0.65 as the reference entry and 4.11 (one replicate of three) as a member of this library.
Background: pairings of library AAYL49 with three empty control strains gave a value in 15% of cases (median 4.06, 5th percentile 2.83). Values in that range, when seen in few replicates, are hard to tell from nonspecific mating. The control count says in how many pairings with the empty strains this scFv gave a signal, with their mean in brackets.

| # | CDR-H1 | CDR-H2 | CDR-H3 | log10 Kd, replicates | log10 Kd (nM), mean | empty controls |
|---|---|---|---|---|---|---|
| 1 | NFTLNYYGIS | VIYSDGRRTFYGDSVK | GRAARTFDS | n.d. / n.d. / n.d. | n.d. | 1/9 (3.27) |
| 2 | GFTLNSYGIS | VIYSDQKRTFFGDSVK | GRAAGTFDS | n.d. / n.d. / n.d. | n.d. | 0/9 |
| 3 | GFTLNSYGIS | VIYSDGRRTFYGDSDQ | GRAAGTFKS | 3.90 / n.d. / n.d. | 3.90 | 4/9 (3.71) |
| 4 | GFTLNSYCIS | VIYDDGRRTFMGDSVK | GRAAGTFDS | n.d. / n.d. / 4.93 | 4.93 | 1/9 (3.58) |
| 5 | GFTLNSYGIS | VIYLDGRRTFYHDSVK | GRAAGTPDS | n.d. / n.d. / n.d. | n.d. | 0/9 |
| 6 | GFTLNSYGIS | VIYQDGRRTFYGDSQK | GRAAGTFDC | n.d. / n.d. / 3.15 | 3.15 | 0/9 |
| 7 | GFTLNSYGWS | VIYSDGRRTFDGDSVK | GRAAGKFDS | n.d. / n.d. / n.d. | n.d. | 1/9 (3.36) |
| 8 | GFTLNSYGID | VIYSDGRRTFYGDLVK | GRAAGYFDS | n.d. / n.d. / n.d. | n.d. | 0/9 |
| 9 | GFTLNSYGIS | SIASDGERTFYGDSVK | GRAAGTFDS | n.d. / 3.82 / n.d. | 3.82 | 1/9 (3.76) |
| 10 | GFTLNSYGIS | VIYSDGRRTPYWDSVK | DRAAGTFDS | n.d. / 5.27 / n.d. | 5.27 | 3/9 (3.87) |
| 11 | IFTLNSFGIS | VIYSDGRRTFYGDSVK | GRAAGTHDS | n.d. / n.d. / n.d. | n.d. | 2/9 (4.11) |
| 12 | GFTLNSYGIS | PIYSDGRRTFYGDNVK | GRAAGTFDS | n.d. / 4.01 / n.d. | 4.01 | 5/9 (3.80) |
| 13 | RFTLNSYYIS | VIYSDGRRTFYGDSVK | GRAAGHFDS | n.d. / n.d. / n.d. | n.d. | 0/9 |
| 14 | TFQLNSYGIS | VIYSDGRRTFYGDSVK | GRAAGTGDS | n.d. / 3.81 / n.d. | 3.81 | 0/9 |
| 15 | GFTLNSYGGS | VIFSVGRRTFYGDSVK | GRAAGTFDS | 5.05 / 5.18 / n.d. | 5.11 | 6/9 (4.27) |
| 16 | GFTDNSYGIS | VIVSDGRYTFYGDSVK | GRAAGTFDS | n.d. / n.d. / n.d. | n.d. | 0/9 |
| 17 | GFTHYSYGIS | VIYSDGRRTFYGDSVV | GRAAGTFDS | n.d. / 5.34 / n.d. | 5.34 | 2/9 (4.93) |
| 18 | GFTLKSYGIS | VTVSDGRRTFYGDSVK | GRAAGTFDS | n.d. / n.d. / n.d. | n.d. | 0/9 |
| 19 | GFTLNSYGIS | VPWSDGRRTFMGDSVK | GRAAGTFDS | n.d. / n.d. / n.d. | n.d. | 0/9 |
| 20 | GFTLNSYGIS | AIYEDGRRNFYGDSVK | GRAAGTFDS | n.d. / n.d. / n.d. | n.d. | 0/9 |
| 21 | GFTLNSYGIS | VIYSDGDRTFYGDSVK | GREAGTFCS | n.d. / n.d. / 4.24 | 4.24 | 0/9 |
| 22 | GFMLNSMGIS | VIYSDGRRTFYGDSVK | GRAAGTKDS | n.d. / 4.13 / n.d. | 4.13 | 1/9 (2.94) |
| 23 | GFTLNSYGIS | VIYGKGRRTFYGDSVK | GRAAGRFDS | n.d. / n.d. / n.d. | n.d. | 1/9 (3.79) |
| 24 | GFTLNSYFIS | VIYSDGERTFDGDSVK | GRAAGTFDS | 4.42 / n.d. / n.d. | 4.42 | 2/9 (4.10) |
| 25 | GFCLNSYGIS | VIYSDERRTFYGDRVK | GRAAGTFDS | n.d. / n.d. / 4.26 | 4.26 | 2/9 (4.22) |
| 26 | GFTLDSYGIS | VTYSDGRRTFYGDSVK | QRAAGTFDS | n.d. / n.d. / n.d. | n.d. | 0/9 |
| 27 | GFTLNSYGIW | VICSDGRRTFYGDSVK | GRAAGTFDS | n.d. / n.d. / n.d. | n.d. | 0/9 |
| 28 | GATLNSYGIS | VIYSHGRRTFYGDSVK | GRAAGTFDS | 5.25 / 3.46 / n.d. | 4.35 | 3/9 (4.53) |
| 29 | GFDLNSYGIS | VIYSDGRRTFWGDSVK | GRAAGTFDD | n.d. / n.d. / n.d. | n.d. | 0/9 |
| 30 | YFTLNSYGIS | VIYSDGRRTFMGDRVK | GRAAGTFDS | n.d. / n.d. / n.d. | n.d. | 1/9 (3.46) |
| 31 | GFTLNSYGIA | VIYSDKRRTFYFDSVK | GRAAGTFDS | 4.46 / 5.35 / 4.63 | 4.81 | 3/9 (4.36) |
| 32 | GFTLNSYMIS | VIYSDGRRTFYGDSGK | GRAAGTFDN | n.d. / n.d. / n.d. | n.d. | 0/9 |
| 33 | GFTLNSYGIS | VIYSDGRRTFYGDSVK | YRAFGAFDS | 1.30 / 1.42 / 1.02 | 1.25 | 2/9 (4.37) |